Assay results published in patent US10072001B2, “Tank-binding kinase inhibitor compounds” (Gilead Sciences, Inc., priority 2014, dated 2018).

Amino acid sequences for entries named in this document (tags omitted). A change or cut given only in a name is not applied to a line headed by its entry.
UniProt Q14164: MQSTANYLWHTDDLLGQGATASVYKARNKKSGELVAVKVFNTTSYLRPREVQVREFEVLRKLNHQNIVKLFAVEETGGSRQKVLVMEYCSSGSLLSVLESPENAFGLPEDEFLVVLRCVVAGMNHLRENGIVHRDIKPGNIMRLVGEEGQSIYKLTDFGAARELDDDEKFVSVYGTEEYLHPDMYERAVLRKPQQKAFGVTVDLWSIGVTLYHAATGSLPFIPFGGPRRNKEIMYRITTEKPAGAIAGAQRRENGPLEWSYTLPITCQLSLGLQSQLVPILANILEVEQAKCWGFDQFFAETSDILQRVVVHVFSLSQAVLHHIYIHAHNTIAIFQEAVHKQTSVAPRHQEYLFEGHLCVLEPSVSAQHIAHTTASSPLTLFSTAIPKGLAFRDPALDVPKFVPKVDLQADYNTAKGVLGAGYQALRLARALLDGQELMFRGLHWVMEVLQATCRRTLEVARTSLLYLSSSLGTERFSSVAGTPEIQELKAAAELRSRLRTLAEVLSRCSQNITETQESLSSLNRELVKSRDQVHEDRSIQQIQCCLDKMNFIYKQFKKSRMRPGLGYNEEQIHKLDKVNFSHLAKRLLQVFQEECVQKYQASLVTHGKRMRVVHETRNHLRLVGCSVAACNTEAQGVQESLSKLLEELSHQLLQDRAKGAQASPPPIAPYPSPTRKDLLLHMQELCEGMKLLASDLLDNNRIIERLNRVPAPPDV
UniProt Q9UHD2: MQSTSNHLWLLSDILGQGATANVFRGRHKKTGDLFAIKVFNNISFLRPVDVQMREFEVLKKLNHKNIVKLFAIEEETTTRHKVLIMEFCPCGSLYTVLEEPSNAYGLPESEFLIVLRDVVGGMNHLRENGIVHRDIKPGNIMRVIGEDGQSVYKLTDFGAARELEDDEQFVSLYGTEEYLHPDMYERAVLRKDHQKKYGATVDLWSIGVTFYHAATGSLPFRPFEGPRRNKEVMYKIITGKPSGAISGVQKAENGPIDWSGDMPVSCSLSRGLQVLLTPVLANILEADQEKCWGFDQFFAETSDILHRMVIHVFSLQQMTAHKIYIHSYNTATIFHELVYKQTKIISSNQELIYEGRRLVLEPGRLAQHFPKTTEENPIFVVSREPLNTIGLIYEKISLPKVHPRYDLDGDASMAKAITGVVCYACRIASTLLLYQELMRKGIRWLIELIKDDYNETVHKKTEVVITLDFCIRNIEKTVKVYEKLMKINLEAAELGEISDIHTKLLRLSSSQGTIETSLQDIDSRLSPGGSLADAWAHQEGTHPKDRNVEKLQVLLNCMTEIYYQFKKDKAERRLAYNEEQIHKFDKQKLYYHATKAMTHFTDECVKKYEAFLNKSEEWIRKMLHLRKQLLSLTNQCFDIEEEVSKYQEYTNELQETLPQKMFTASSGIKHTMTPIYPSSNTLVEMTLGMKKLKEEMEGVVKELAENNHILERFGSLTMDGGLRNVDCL

molecular target: IKKε (Homo sapiens (Human), UniProt Q14164); experiment: TR-FRET kinase assay, IKKε; assay type: biochemical; settings: full length recombinant IKKε 0.3 nM, 2x Km ATP, 1 μM peptide, 240 min at 25° C.; geometric mean of minimum four determinations
Excerpt: Biological Assay for TBK1 and IKKs:

IC50 [nM]	SMILES
15.2	N#Cc1cc(-c2ncnc3[nH]c(-c4ccc(N5CCOCC5)nc4)cc23)ccc1OC1CCOCC1 [Example 155, 5-(6-(6-morpholinopyridin-3-yl)-7H-pyrrolo[2,3-d]pyrimidin-4-yl)-2-((tetrahydro-2H-pyran-4-yl)oxy)benzonitrile]
25.1	N#Cc1cc(-c2cc3c(-c4ccc(OC5CCOCC5)c(C#N)c4)ncnc3[nH]2)ccc1OC1CCOCC1 [Example 223, 5,5′-(7H-pyrrolo[2,3-d]pyrimidine-4,6-diyl)bis(2-((tetrahydro-2H-pyran-4-yl)oxy)benzonitrile)]

SMILES	IC50 [nM]
CC(C)(C)Oc1cc(-c2cc3c(-c4ccc(OC5CCOCC5)c(C#N)c4)ccnc3[nH]2)ccn1 [Example 225, 5-(2-(2-(tert-butoxy)pyridin-4-yl)-1H-pyrrolo[2,3-b]pyridin-4-yl)-2-((tetrahydro-2H-pyran-4-yl)oxy)benzonitrile]	1000

molecular target: TBK1 (Homo sapiens (Human), UniProt Q9UHD2); experiment: TR-FRET kinase assay, TBK1; settings: read-out: TBK1-IC50; full length recombinant TBK1 2.5 nM, 2x Km ATP, 1 μM peptide, 240 min at 25° C.; geometric mean of minimum four determinations

IC50 [nM]	SMILES
1410	N#Cc1cc(-c2ncnc3[nH]ccc23)ccc1OC1CCOCC1 [Example 108, 5-(7H-pyrrolo[2,3-d]pyrimidin-4-yl)-2-((tetrahydro-2H-pyran-4-yl)oxy)benzonitrile]
268	COC(=O)c1ccc(-c2cc3c(-c4ccc(OC5CCOCC5)c(C#N)c4)ccnc3[nH]2)cc1 [Example 238, Methyl 4-(4-(3-cyano-4-((tetrahydro-2H-pyran-4-yl)oxy)phenyl)-1H-pyrrolo[2,3-b]pyridin-2-yl)benzoate]

SMILES	IC50 [nM]
CC(C)(C)Oc1cc(-c2cc3c(-c4ccc(OC5CCOCC5)c(C#N)c4)ccnc3[nH]2)ccn1 [Example 225, 5-(2-(2-(tert-butoxy)pyridin-4-yl)-1H-pyrrolo[2,3-b]pyridin-4-yl)-2-((tetrahydro-2H-pyran-4-yl)oxy)benzonitrile]	1000
